{"source": "patent US5421897A", "about": "“Abatement process for contaminants” (priority 1992, dated 1995)", "origin": "cited, not measured here", "system": "man", "details": "inhl-wmm; cited from earlier work"}
{"substance": "Mercury", "values": [{"measurement": "TCLo", "result": 150, "unit": "μg/m^3"}]}
